Holding throughout (experiment): 125I-probe peptide inhibition, purified HLA
Experiment [1] addresses HLA-B*5101 (human).
In experiment [2] the target is HLA-B*3501 (human).
Experiment [3] has as its target HLA-B*5301 (human).
Experiment [4] addresses HLA-A*6801 (human).
For experiment [5], the target named is HLA-B*0702 (human).

In experiment [1], FPAPAPSWPL [p53.84.F1] displayed an IC50 of 1060 nM.

For FPTPAAPI [p53.79.F118], in experiment [2], the IC50 came out at 5140 nM. In other words, the single-digit micromolar range.

Molecule FPAPAAPTPA [p53.74.F1 (10-mer)] displayed an IC50 in experiment [3] of 5170 nM.

Turning to FPAPAAPTPI [p53.74.F1110], it took 277 nM to reach half-maximal inhibition in experiment [2] (IC50).

FPAAPTPAAPA [p53.76.F1 (11-mer)] showed an IC50 in experiment [2] of 257 nM.

In experiment [1], FPAPSWPL [p53.86.F1] showed an IC50 of 204 nM. This lies in the sub-micromolar range.

In experiment [2], FPRMPEAAPPI [p53.63.F1111] had an IC50 of 5540 nM.

In turn, FPAAPTPI [p53.76.F118] had an IC50 in experiment [2] of 655 nM. Against the preceding molecule, the IC50 is about 8.5-fold lower.

Turning to FPTPAAPAPI [p53.79.F1], the IC50 in experiment [2] was found to be 3430 nM; in experiment [3], 715 nM.

In experiment [4], VVRRBPHHEK (B at position 5 = alpha-amino butyric acid (in place of Cys)) [p53.172.B5K10] yielded an IC50 of 3810 nM.

In turn, FPPVAPAPAI [p53.70.F1110] gave an IC50 in experiment [3] of 2910 nM.

Molecule FPPVAPAPI [p53.70.F119] gave an IC50 in experiment [5] of 275 nM.

As a reminder, the IC50 is the concentration that gives 50% inhibition. High values mean lower potency, low ones higher potency.

The record behind these values is patent US20040048790A1 (published 2004).
